This assay concerns the target FcRn (Neonatal Fc Receptor). Description: SPR (BIAcore T200), FcRn amine-coupled on CM5 chip, antibody 1.96-31.25 nM flowed, pH 6.0 or 7.4 not given, 1:1 fit; Table 4 taken as the FcRn table.

Broadly, the Kd is the concentration at which binding is half-saturated. A low value points to a tighter complex. Substance Trastuzumab-(VC-PABC-MMAE)2 (antibody) registered a Kd of 0.604 nM.

The values above are taken from EP4678648A1, “SYNTHESIS METHOD OF ANTIBODY-DRUG CONJUGATES USING PROXIMITY EFFECT-BASED SITE-SELECTIVE ANTIBODY LABELING” (Sogang University Research Business Development Foundation, priority 2023, dated 2024).
